The species entered for assay [1] is Mus musculus. Briefly: Analgesic activity in OX1R knock out mouse assessed as increase in wheel running activity.
The species named for assay [2] is Mus musculus. Put plainly: Analgesic activity in mouse assessed as increase in wheel running activity.

Calls of active or inactive are those of the source. The calls are words filed in the database; no cut-off is given here.

Turning to `CN(C(=O)Cc1ccc(Cl)c(Cl)c1)C1CCCCC1N1CCCC1` (configuration not stated), the outcome in assay [1] and in assay [2] was Active.
